The text below walks through data of PubChem BioAssay (NCI).

Some results for these compounds are left out of this collection, so the calls shown say nothing about other tests.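 Compound exposure: 48 hours, 5 concentrations, 96-well plates. At the TGI there is no net growth.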

The subject of one assay is NCI/ADR-RES ovarian. The assay can be described thus: NCI anticancer screen, dose series, 48 h.
Another assay deals with BT-549 breast. Kind of assay: NCI anticancer screen, dose series, 48 h.

For the molecule `CC#CC(O)(C(=O)OCC1=CCCN(C)C1)c1ccccc1` (configuration not stated), the TGI in the assay on NCI/ADR-RES ovarian was 79.6 µM; in the assay with BT-549 breast, over 100 µM.
